Our source for the IC50 values is patent US20240360179A1, “STAPLED PEPTIDES AND METHODS THEREOF” (FOG PHARMACEUTICALS, INC., priority 2021, published 2024).

Protein sequences, listed by entry. Tags and fused reporters are not part of them.
UniProt P35222, whole entry: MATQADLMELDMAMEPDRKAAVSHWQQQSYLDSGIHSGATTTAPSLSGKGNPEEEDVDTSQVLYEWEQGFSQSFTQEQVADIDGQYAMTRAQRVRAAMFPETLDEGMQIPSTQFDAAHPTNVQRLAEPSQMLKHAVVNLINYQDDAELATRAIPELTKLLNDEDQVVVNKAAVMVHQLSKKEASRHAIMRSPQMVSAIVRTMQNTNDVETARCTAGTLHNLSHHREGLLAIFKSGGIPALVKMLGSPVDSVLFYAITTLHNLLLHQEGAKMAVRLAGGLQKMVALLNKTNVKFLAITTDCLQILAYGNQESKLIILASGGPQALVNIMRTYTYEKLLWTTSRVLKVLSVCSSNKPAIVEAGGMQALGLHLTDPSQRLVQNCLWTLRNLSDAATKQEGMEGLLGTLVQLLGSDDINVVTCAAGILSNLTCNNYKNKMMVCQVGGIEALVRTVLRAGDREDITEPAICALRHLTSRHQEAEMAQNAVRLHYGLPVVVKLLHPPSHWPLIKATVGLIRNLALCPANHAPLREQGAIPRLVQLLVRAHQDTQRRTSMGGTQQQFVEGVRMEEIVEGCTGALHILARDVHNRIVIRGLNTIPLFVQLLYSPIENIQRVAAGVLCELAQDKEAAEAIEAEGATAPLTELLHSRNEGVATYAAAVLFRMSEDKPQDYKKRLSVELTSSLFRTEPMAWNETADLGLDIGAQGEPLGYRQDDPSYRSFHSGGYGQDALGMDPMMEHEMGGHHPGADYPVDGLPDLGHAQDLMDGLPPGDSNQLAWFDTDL

The target in this assay is T1, full-length B-Catenin (Uniprot ID P35222) (Homo sapiens, UniProt P35222).
T1 construct: 10 nM full-length B-Catenin (Uniprot ID P35222)
The assay can be described thus: biochemical. To be noted: beta-Catenin FP IC50 (nM), competition fluorescence polarization. The class given is binding.
As usually defined, the IC50 is the concentration needed to halve the response being measured. A higher IC50 goes with a need for much substance. As for `CC(=O)N1CCC[C@]12CC=CCCCC1(CCCC=CCCCOC(=O)N3CC[C@@]4(C3)NC(=O)[C@H](CC(=O)NCCCC[C@@H](C(=O)N[C@@H](C)C(N)=O)NC(=O)[C@H](Cc3csc5ccccc35)NC(=O)[C@H](Cc3ccsc3)NC4=O)NC(=O)[C@H](Cc3ccccc3)NC(=O)[C@H](C)NC(=O)[C@H](C)NC(=O)[C@H](Cc3cccc(C(=O)O)c3)NC(=O)[C@H](CC(=O)O)NC1=O)NC(=O)[C@H](CC(C)(C)C)NC(=O)[C@H](CC(=O)O)NC2=O` (relative stereo) [I-44, Ac-PL3-Asp-Npg-B5-Asp-3COOHF-Ala-Ala-Phe-AsnR*3-PyrS2-3Thi-BztA-Lys*3-Ala-NH2], the IC50 was in the range of 750 to 1000 nM. With `CC(=O)N1CCC[C@]12CC=CCCCC1(CCCC=CCCCOC(=O)N3CC[C@@]4(C3)NC(=O)[C@H](CCCCNC(=O)CC[C@@H](C(=O)N[C@@H](C)C(N)=O)NC(=O)[C@H](Cc3csc5ccccc35)NC(=O)[C@H](Cc3ccsc3)NC4=O)NC(=O)[C@H](Cc3ccccc3)NC(=O)[C@H](C)NC(=O)[C@H](CO)NC(=O)[C@H](Cc3cccc(C(=O)O)c3)NC(=O)[C@H](CCO)NC1=O)NC(=O)[C@H](CC(C)(C)C)NC(=O)[C@H](CC(=O)O)NC2=O` (relative stereo) [I-87, Ac-PL3-Asp-Npg-B5-Hse-3COOHF-Ser-Ala-Phe-Lys*3-PyrS2-3Thi-BztA-GlnR*3-Ala-NH2], the IC50 was in the range of 200 to 750 nM. On to `CC(=O)N1CCC[C@]12CC=CCCCC1(CCCC=CCCCOC(=O)N3CC[C@@]4(C3)NC(=O)[C@H](CCCCNC(=O)CC[C@@H](C(=O)N[C@@H](C)C(N)=O)NC(=O)[C@H](Cc3csc5ccccc35)NC(=O)[C@H](Cc3ccsc3)NC4=O)NC(=O)[C@H](Cc3ccccc3)NC(=O)[C@H](C)NC(=O)[C@H](CCC(N)=O)NC(=O)[C@H](Cc3cccc(C(=O)O)c3)NC(=O)[C@H](CCO)NC1=O)NC(=O)[C@H](CC(C)(C)C)NC(=O)[C@H](CC(=O)O)NC2=O` (relative stereo) [I-91, Ac-PL3-Asp-Npg-B5-Hse-3COOHF-Gln-Ala-Phe-Lys*3-PyrS2-3Thi-BztA-GlnR*3-Ala-NH2], for which the IC50 fell in the range of 200 to 750 nM. The result for `CC(=O)N1CCC[C@]12CC=CCCCC1(CCCC=CCCCOC(=O)N3CC[C@@]4(C3)NC(=O)[C@H](CCCCNC(=O)CC[C@@H](C(=O)N[C@@H](C)C(N)=O)NC(=O)[C@H](Cc3csc5ccccc35)NC(=O)[C@H](Cc3ccccc3C(F)(F)F)NC4=O)NC(=O)[C@H](Cc3ccccc3)NC(=O)[C@H](C)NC(=O)[C@H](C)NC(=O)[C@H](CN(CC(=O)O)CC(F)(F)F)NC(=O)[C@H](CC(N)=O)NC1=O)NC(=O)[C@H](CC(C)(C)C)NC(=O)[C@H](CC(=O)O)NC2=O` (relative stereo) [I-117, Ac-PL3-Asp-Npg-B5-Asn-TfeGA-Ala-Ala-Phe-Lys*3-PyrS2-2F3MeF-BztA-GlnR*3-Ala-NH2] reads 200 to 750 nM; that for `CC(=O)N1CCC[C@]12CC=CCCCC1(CCCC=CCCCOC(=O)N3CC[C@@]4(C3)NC(=O)[C@H](CCCCNC(=O)CC[C@@H](C(=O)N[C@@H](CC(C)C)C(=O)N[C@@H](CO)C(N)=O)NC(=O)[C@H](Cc3csc5ccccc35)NC(=O)[C@H](Cc3ccccc3C(F)(F)F)NC4=O)NC(=O)[C@H](Cc3ccccc3)NC(=O)[C@H](C)NC(=O)[C@H](C)NC(=O)[C@H](Cc3cccc(C(=O)O)c3)NC(=O)[C@H](CC(=O)O)NC1=O)NC(=O)[C@H](CC(C)(C)C)NC(=O)[C@H](CCO)NC2=O` (relative stereo) [I-145, Ac-PL3-Hse-Npg-B5-Asp-3COOHF-Ala-Ala-Phe-Lys*3-PyrS2-2F3MeF-BztA-GlnR*3-Leu-Ser-NH2], above 1000 nM; that for `CCCC[C@@H]1NC(=O)[C@H](Cc2cccc(C(=O)O)c2)NC(=O)[C@H](CC(=O)O)NC(=O)C2(CCCC=CCCCOC(=O)N3CC[C@@]4(C3)NC(=O)[C@H](CCCCNC(=O)CC[C@@H](C(=O)N[C@@H](CC(C)C)C(=O)N[C@@H](CO)C(N)=O)NC(=O)[C@H](Cc3csc5ccccc35)NC(=O)[C@H](Cc3ccccc3C(F)(F)F)NC4=O)NC(=O)[C@H](Cc3ccccc3)NC(=O)[C@H](C)NC1=O)CCCC=CC[C@]1(CCCN1C(C)=O)C(=O)N[C@@H](CCO)C(=O)N[C@@H](CC(C)(C)C)C(=O)N2` (relative stereo) [I-146, Ac-PL3-Hse-Npg-B5-Asp-3COOHF-nLeu-Ala-Phe-Lys*3-PyrS2-2F3MeF-BztA-GlnR*3-Leu-Ser-NH2], above 1000 nM. `CC(=O)N1CCC[C@]12CC=CCCCC1(CCCC=CCCCOC(=O)N3CC[C@@]4(C3)NC(=O)[C@H](CCCCNC(=O)CC[C@@H](C(=O)N[C@@H](CC(C)C)C(=O)N[C@@H](CO)C(N)=O)NC(=O)[C@H](Cc3csc5ccccc35)NC(=O)[C@H](Cc3ccccc3C(F)(F)F)NC4=O)NC(=O)[C@H](Cc3ccccc3)NC(=O)[C@H](C)NC(=O)C(C)(C)NC(=O)[C@H](Cc3cccc(C(=O)O)c3)NC(=O)[C@H](CC(=O)O)NC1=O)NC(=O)[C@H](CC(C)(C)C)NC(=O)[C@H](CCO)NC2=O` (relative stereo) [I-147, Ac-PL3-Hse-Npg-B5-Asp-3COOHF-Aib-Ala-Phe-Lys*3-PyrS2-2F3MeF-BztA-GlnR*3-Leu-Ser-NH2] yielded an IC50 of 750 to 1000 nM. For the compound `CC(=O)N1CCC[C@]12CC=CCCCC1(CCCC=CCCCOC(=O)N3CC[C@@]4(C3)NC(=O)[C@H](CCC(=O)NCCCC[C@@H](C(N)=O)NC(=O)[C@H](Cc3csc5ccccc35)NC(=O)[C@H](Cc3ccccc3)NC4=O)NC(=O)[C@H](Cc3ccccc3)NC(=O)[C@H](C)NC(=O)[C@H](CCO)NC(=O)[C@H](CCC(N)=O)NC(=O)[C@H](CC(=O)O)NC1=O)NC(=O)[C@H](CC1CCCCC1)NC(=O)[C@H](CC(N)=O)NC2=O` (relative stereo) [I-148, Ac-PL3-Asn-Cha-B5-Asp-Gln-Hse-Ala-Phe-GlnR*3-PyrS2-Phe-BztA-Lys*3-NH2], the IC50 lay in the range of 200 to 750 nM. The value for `CC(=O)N1CCC[C@]12CC=CCCCC1(CCCC=CCCCOC(=O)N3CC[C@@]4(C3)NC(=O)[C@H](CCC(=O)NCCCC[C@@H](C(N)=O)NC(=O)[C@H](Cc3csc5ccccc35)NC(=O)[C@H](Cc3ccccc3)NC4=O)NC(=O)[C@H](Cc3ccccc3)NC(=O)[C@H](C)NC(=O)[C@H](CCCCNC(C)C)NC(=O)[C@H]([C@@H](C)O)NC(=O)[C@H](CC(=O)O)NC1=O)NC(=O)[C@H](CC1CCCCC1)NC(=O)[C@H](CC(N)=O)NC2=O` (relative stereo) [I-150, Ac-PL3-Asn-Cha-B5-Asp-Thr-iPrLys-Ala-Phe-GlnR*3-PyrS2-Phe-BztA-Lys*3-NH2] was above 1000 nM; that for `CC(=O)N1CCC[C@]12CC=CCCCC1(CCCC=CCCCOC(=O)N3CC[C@@]4(C3)NC(=O)[C@H](CCC(=O)NCCCC[C@@H](C(N)=O)NC(=O)[C@H](Cc3csc5ccccc35)NC(=O)[C@H](Cc3ccsc3)NC4=O)NC(=O)[C@H](Cc3ccccc3)NC(=O)[C@H](C)NC(=O)[C@H](CCCCNC(C)C)NC(=O)[C@H](CCC(N)=O)NC(=O)[C@H](CC(=O)O)NC1=O)NC(=O)[C@H](CC1CCCCC1)NC(=O)[C@H](CC(N)=O)NC2=O` (relative stereo) [I-152, Ac-PL3-Asn-Cha-B5-Asp-Gln-iPrLys-Ala-Phe-GlnR*3-PyrS2-3Thi-BztA-Lys*3-NH2] was 750 to 1000 nM; that for `CC(=O)N1CCC[C@]12CCCCCCC1(CCCCCCCCOC(=O)N3CC[C@@]4(C3)NC(=O)[C@H](CCC(=O)NCCCC[C@@H](C(N)=O)NC(=O)[C@H](Cc3csc5ccccc35)NC(=O)[C@H](Cc3ccccc3)NC4=O)NC(=O)[C@H](Cc3ccccc3)NC(=O)[C@H](C)NC(=O)[C@H](CCO)NC(=O)[C@H](CCC(N)=O)NC(=O)[C@H](CC(=O)O)NC1=O)NC(=O)[C@H](CC1CCCCC1)NC(=O)[C@H](CC(N)=O)NC2=O` (relative stereo) [I-153, Ac-PL3-Asn-Cha-B5-Asp-Gln-Hse-Ala-Phe-GlnR*3-PyrS2-Phe-BztA-Lys*3-NH2] was above 1000 nM. The result for `CC(=O)N1CCC[C@]12CCCCCCC1(CCCCCCCCOC(=O)N3CC[C@@]4(C3)NC(=O)[C@H](CCC(=O)NCCCC[C@@H](C(N)=O)NC(=O)[C@H](Cc3csc5ccccc35)NC(=O)[C@H](Cc3ccccc3)NC4=O)NC(=O)[C@H](Cc3ccccc3)NC(=O)[C@H](C)NC(=O)[C@H](CCCCNC(C)C)NC(=O)[C@H](CCC(N)=O)NC(=O)[C@H](CC(=O)O)NC1=O)NC(=O)[C@H](CC1CCCCC1)NC(=O)[C@H](CC(N)=O)NC2=O` (relative stereo) [I-154, Ac-PL3-Asn-Cha-B5-Asp-Gln-iPrLys-Ala-Phe-GlnR*3-PyrS2-Phe-BztA-Lys*3-NH2] reads above 1000 nM; that for `CC(=O)N1CCC[C@]12CCCCCCC1(CCCCCCCCOC(=O)N3CC[C@@]4(C3)NC(=O)[C@H](CCC(=O)NCCCC[C@@H](C(N)=O)NC(=O)[C@H](Cc3csc5ccccc35)NC(=O)[C@H](Cc3ccccc3)NC4=O)NC(=O)[C@H](Cc3ccccc3)NC(=O)[C@H](C)NC(=O)[C@H](CCO)NC(=O)[C@H]([C@@H](C)O)NC(=O)[C@H](CC(=O)O)NC1=O)NC(=O)[C@H](CC1CCCCC1)NC(=O)[C@H](CC(N)=O)NC2=O` (relative stereo) [I-155, Ac-PL3-Asn-Cha-B5-Asp-Thr-Hse-Ala-Phe-GlnR*3-PyrS2-Phe-BztA-Lys*3-NH2], above 1000 nM.

`CC(=O)N1CCC[C@]12CCCCCCC1(CCCCCCCCOC(=O)N3CC[C@@]4(C3)NC(=O)[C@H](CCC(=O)NCCCC[C@@H](C(N)=O)NC(=O)[C@H](Cc3csc5ccccc35)NC(=O)[C@H](Cc3ccccc3)NC4=O)NC(=O)[C@H](Cc3ccccc3)NC(=O)[C@H](C)NC(=O)[C@H](CCCCNC(C)C)NC(=O)[C@H]([C@@H](C)O)NC(=O)[C@H](CC(=O)O)NC1=O)NC(=O)[C@H](CC1CCCCC1)NC(=O)[C@H](CC(N)=O)NC2=O` (relative stereo) [I-156, Ac-PL3-Asn-Cha-B5-Asp-Thr-iPrLys-Ala-Phe-GlnR*3-PyrS2-Phe-BztA-Lys*3-NH2]: the IC50 is above 1000 nM. For the compound `CC(=O)N1CCC[C@]12CCCCCCC1(CCCCCCCCOC(=O)N3CC[C@@]4(C3)NC(=O)[C@H](CCC(=O)NCCCC[C@@H](C(N)=O)NC(=O)[C@H](Cc3csc5ccccc35)NC(=O)[C@H](Cc3ccsc3)NC4=O)NC(=O)[C@H](Cc3ccccc3)NC(=O)[C@H](C)NC(=O)[C@H](CCO)NC(=O)[C@H](CCC(N)=O)NC(=O)[C@H](CC(=O)O)NC1=O)NC(=O)[C@H](CC1CCCCC1)NC(=O)[C@H](CC(N)=O)NC2=O` (relative stereo) [I-157, Ac-PL3-Asn-Cha-B5-Asp-Gln-Hse-Ala-Phe-GlnR*3-PyrS2-3Thi-BztA-Lys*3-NH2], the IC50 was above 1000 nM.
